# In ChEMBL document CHEMBL3632608, “Effects of alkyl side chains and terminal hydrophilicity on vitamin D receptor (VDR) agonistic activity based on the diphenylpentane skeleton” (Bioorg Med Chem Lett, 2015):
# Calls of active or inactive are those of the source. The rule behind the calls is not given here.
# Molecular target: T1, Vitamin D3 receptor (Homo sapiens) (UniProt P11473)
# T1 sequence (whole entry): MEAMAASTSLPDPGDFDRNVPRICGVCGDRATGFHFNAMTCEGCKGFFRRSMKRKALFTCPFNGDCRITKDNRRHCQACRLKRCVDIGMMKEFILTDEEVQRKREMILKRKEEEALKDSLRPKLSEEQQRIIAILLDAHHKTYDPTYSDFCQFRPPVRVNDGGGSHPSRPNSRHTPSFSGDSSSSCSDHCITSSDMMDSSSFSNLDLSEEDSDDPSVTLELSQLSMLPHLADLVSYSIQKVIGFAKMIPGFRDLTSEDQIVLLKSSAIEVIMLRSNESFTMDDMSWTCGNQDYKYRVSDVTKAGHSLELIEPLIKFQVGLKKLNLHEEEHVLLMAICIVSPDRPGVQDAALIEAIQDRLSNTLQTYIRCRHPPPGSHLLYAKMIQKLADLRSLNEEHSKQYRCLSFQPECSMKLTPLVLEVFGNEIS
# Test: Agonist activity at VDR in human HL60 cells assessed as induction of cell differentiation at 3 to 10 uM by NBT reduction assay
# Type: cell-based
# Details: HL-60
compound,measurement,value
CCCCCCCCOC(C)(C)[C@@H](O)COc1ccc(C(CC)(CC)c2ccc(OC[C@@H](O)CO)c(C)c2)cc1C,Activity,Active
